# CycPeptMPDB entries from one study

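Lipid, pH, incubation time, direction and concentration are not recorded in the data file. The list need not hold all peptides of the study. Entries at the database's floor value (log10 P of -10) are not listed.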

PAMPA measures passive passage through an artificial lipid membrane.
Permeability is in 10^-6 cm/s, converted from the database's log10 values; higher is more permeable.

CC(=O)N[C@@H]1C(=O)N2CCC[C@H]2C(=O)N(C)[C@H](CC(C)C)C(=O)N[C@H](CC(C)C)C(=O)N[C@@H](CC(C)C)C(=O)N(C)[C@@H](CC(C)C)C(=O)N(C)[C@H](C)C(=O)N[C@@H](CC(C)C)C(=O)N2CCC[C@@H]2C(=O)O[C@@H]1C has PAMPA 1.5 × 10^-6 cm/s.
CC(=O)N1CCC[C@H]1C(=O)N(C)[C@H](CC(C)C)C(=O)N[C@@H]1C(=O)N(C)[C@H](CC(C)C)C(=O)N(C)[C@H](CC(C)C)C(=O)N[C@H](CC(C)C)C(=O)N(C)[C@@H](C)C(=O)N[C@@H](CC(C)C)C(=O)N2CCC[C@@H]2C(=O)O[C@@H]1C has PAMPA 1 × 10^-6 cm/s.
CC(=O)N1CCC[C@H]1C(=O)N[C@@H]1C(=O)N[C@H](CC(C)C)C(=O)N[C@@H](CC(C)C)C(=O)N(C)[C@@H](CC(C)C)C(=O)N(C)[C@H](CC(C)C)C(=O)N(C)[C@@H](C)C(=O)N[C@@H](CC(C)C)C(=O)N2CCC[C@@H]2C(=O)O[C@@H]1C has PAMPA 4.8 × 10^-6 cm/s.
CC(=O)N1CCC[C@@H]1C(=O)N(C)[C@@H](CC(C)C)C(=O)N[C@@H]1C(=O)N[C@H](CC(C)C)C(=O)N(C)[C@@H](CC(C)C)C(=O)N(C)[C@H](CC(C)C)C(=O)N(C)[C@@H](C)C(=O)N[C@@H](CC(C)C)C(=O)N2CCC[C@@H]2C(=O)O[C@@H]1C has PAMPA 2.2 × 10^-6 cm/s.
CC(=O)N1CCC[C@@H]1C(=O)N(C)[C@H](CC(C)C)C(=O)N[C@@H]1C(=O)N[C@@H](CC(C)C)C(=O)N[C@@H](CC(C)C)C(=O)N(C)[C@@H](CC(C)C)C(=O)N(C)[C@H](C)C(=O)N[C@H](CC(C)C)C(=O)N2CCC[C@H]2C(=O)O[C@@H]1C has PAMPA 0.38 × 10^-6 cm/s.
CC(=O)N1CCC[C@@H]1C(=O)N(C)[C@H](CC(C)C)C(=O)N[C@@H]1C(=O)N[C@@H](CC(C)C)C(=O)N(C)[C@@H](CC(C)C)C(=O)N[C@@H](CC(C)C)C(=O)N[C@@H](C)C(=O)N[C@H](CC(C)C)C(=O)N2CCC[C@H]2C(=O)O[C@@H]1C has PAMPA 0.21 × 10^-6 cm/s.
CC(=O)N1CCC[C@H]1C(=O)N(C)[C@@H](CC(C)C)C(=O)N[C@@H]1C(=O)N[C@H](CC(C)C)C(=O)N(C)[C@@H](CC(C)C)C(=O)N[C@@H](CC(C)C)C(=O)N[C@@H](C)C(=O)N[C@H](CC(C)C)C(=O)N2CCC[C@H]2C(=O)O[C@@H]1C has PAMPA 0.81 × 10^-6 cm/s.
CC(=O)N1CCC[C@H]1C(=O)N(C)[C@@H](CC(C)C)C(=O)N[C@@H]1C(=O)N(C)[C@H](CC(C)C)C(=O)N(C)[C@H](CC(C)C)C(=O)N[C@H](CC(C)C)C(=O)N(C)[C@@H](C)C(=O)N[C@H](CC(C)C)C(=O)N2CCC[C@@H]2C(=O)O[C@@H]1C has PAMPA 1.4 × 10^-6 cm/s.
CC(=O)N1CCC[C@H]1C(=O)N(C)[C@@H](CC(C)C)C(=O)N[C@@H]1C(=O)N(C)[C@@H](CC(C)C)C(=O)N(C)[C@@H](CC(C)C)C(=O)N(C)[C@H](CC(C)C)C(=O)N(C)[C@@H](C)C(=O)N[C@H](CC(C)C)C(=O)N2CCC[C@H]2C(=O)O[C@@H]1C has PAMPA 0.36 × 10^-6 cm/s.
CC(=O)N1CCC[C@@H]1C(=O)N(C)[C@@H](CC(C)C)C(=O)N[C@@H]1C(=O)N[C@H](CC(C)C)C(=O)N[C@@H](CC(C)C)C(=O)N(C)[C@@H](CC(C)C)C(=O)N(C)[C@@H](C)C(=O)N[C@@H](CC(C)C)C(=O)N2CCC[C@H]2C(=O)O[C@@H]1C has PAMPA 2.5 × 10^-6 cm/s.
CC(=O)N1CCC[C@@H]1C(=O)N(C)[C@@H](CC(C)C)C(=O)N[C@@H]1C(=O)N[C@@H](CC(C)C)C(=O)N(C)[C@H](CC(C)C)C(=O)N[C@H](CC(C)C)C(=O)N(C)[C@H](C)C(=O)N[C@H](CC(C)C)C(=O)N2CCC[C@@H]2C(=O)O[C@@H]1C has PAMPA 1.6 × 10^-6 cm/s.
CC(=O)N1CCC[C@H]1C(=O)N(C)[C@H](CC(C)C)C(=O)N[C@@H]1C(=O)N[C@H](CC(C)C)C(=O)N[C@@H](CC(C)C)C(=O)N(C)[C@H](CC(C)C)C(=O)N[C@@H](C)C(=O)N[C@@H](CC(C)C)C(=O)N2CCC[C@@H]2C(=O)O[C@@H]1C has PAMPA 6 × 10^-6 cm/s.
CC(=O)N1CCC[C@@H]1C(=O)N(C)[C@H](CC(C)C)C(=O)N[C@@H]1C(=O)N(C)[C@H](CC(C)C)C(=O)N(C)[C@@H](CC(C)C)C(=O)N[C@@H](CC(C)C)C(=O)N(C)[C@@H](C)C(=O)N[C@@H](CC(C)C)C(=O)N2CCC[C@H]2C(=O)O[C@@H]1C has PAMPA 0.35 × 10^-6 cm/s.
CC(=O)N1CCC[C@@H]1C(=O)N(C)[C@@H](CC(C)C)C(=O)N[C@@H]1C(=O)N(C)[C@@H](CC(C)C)C(=O)N(C)[C@H](CC(C)C)C(=O)N(C)[C@@H](CC(C)C)C(=O)N(C)[C@@H](C)C(=O)N[C@@H](CC(C)C)C(=O)N2CCC[C@H]2C(=O)O[C@@H]1C has PAMPA 3.6 × 10^-6 cm/s.
CC(=O)N1CCC[C@H]1C(=O)N[C@@H]1C(=O)N(C)[C@H](CC(C)C)C(=O)N[C@H](CC(C)C)C(=O)N[C@@H](CC(C)C)C(=O)N[C@H](CC(C)C)C(=O)N[C@H](C)C(=O)N[C@@H](CC(C)C)C(=O)N2CCC[C@@H]2C(=O)O[C@@H]1C has PAMPA 0.27 × 10^-6 cm/s.
CC(=O)N1CCC[C@@H]1C(=O)N(C)[C@H](CC(C)C)C(=O)N[C@@H]1C(=O)N(C)[C@@H](CC(C)C)C(=O)N[C@@H](CC(C)C)C(=O)N(C)[C@@H](CC(C)C)C(=O)N(C)[C@@H](C)C(=O)N[C@@H](CC(C)C)C(=O)N2CCC[C@@H]2C(=O)O[C@@H]1C has PAMPA 3.7 × 10^-6 cm/s.
CC(=O)N1CCC[C@@H]1C(=O)N(C)[C@H](CC(C)C)C(=O)N[C@@H]1C(=O)N(C)[C@@H](CC(C)C)C(=O)N(C)[C@H](CC(C)C)C(=O)N(C)[C@@H](CC(C)C)C(=O)N(C)[C@@H](C)C(=O)N[C@H](CC(C)C)C(=O)N2CCC[C@@H]2C(=O)O[C@@H]1C has PAMPA 6 × 10^-6 cm/s.

The 2 highest values of PAMPA among the entries above:

{"smiles": "CC(=O)N1CCC[C@@H]1C(=O)N(C)[C@H](CC(C)C)C(=O)N[C@@H]1C(=O)N(C)[C@@H](CC(C)C)C(=O)N(C)[C@H](CC(C)C)C(=O)N(C)[C@@H](CC(C)C)C(=O)N(C)[C@@H](C)C(=O)N[C@H](CC(C)C)C(=O)N2CCC[C@@H]2C(=O)O[C@@H]1C", "PAMPA (10^-6 cm/s)": "6"}
{"smiles": "CC(=O)N1CCC[C@H]1C(=O)N(C)[C@H](CC(C)C)C(=O)N[C@@H]1C(=O)N[C@H](CC(C)C)C(=O)N[C@@H](CC(C)C)C(=O)N(C)[C@H](CC(C)C)C(=O)N[C@@H](C)C(=O)N[C@@H](CC(C)C)C(=O)N2CCC[C@@H]2C(=O)O[C@@H]1C", "PAMPA (10^-6 cm/s)": "6"}

Data: CycPeptMPDB; original report Kelly et al. 2021, doi:10.1021/jacs.0c06115.